Only a part of the results on these compounds is given; other tests are left out.
Target: p38/MK2 interaction (Homo sapiens, UniProt Q16539)
Test: TR-FRET ultra-high-throughput screening (uHTS), 1536-well, HEK293T lysate VF-p38α / GST-MK2
Type: binding

Sequences of proteins named here, by UniProt entry; tags and fusion partners are left off.
UniProt Q16539, whole entry: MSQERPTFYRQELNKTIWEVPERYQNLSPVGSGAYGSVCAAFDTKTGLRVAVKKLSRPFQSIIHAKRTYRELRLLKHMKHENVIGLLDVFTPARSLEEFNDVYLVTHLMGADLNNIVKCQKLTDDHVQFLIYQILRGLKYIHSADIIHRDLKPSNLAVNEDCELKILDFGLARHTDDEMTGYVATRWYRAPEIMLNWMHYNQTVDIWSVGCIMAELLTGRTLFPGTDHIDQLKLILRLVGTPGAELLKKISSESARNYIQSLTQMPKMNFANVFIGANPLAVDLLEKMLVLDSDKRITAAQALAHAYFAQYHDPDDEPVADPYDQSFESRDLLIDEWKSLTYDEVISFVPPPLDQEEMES

disodium;iron(4+);nitroxyl anion;pentacyanide
620 nm Fold over Control (fluorescence interference readout): 0.42
Pct of control (uHTS TR-FRET signal, Emory Enriched Library): 7.21 Pct of control

Source: PMC12751014, “Non-Catalytic Inhibitors of the p38/MK2 Interface: Repurposing Approved Drugs to Target Neuroinflammation in Alzheimer’s Disease” (Journal of Medicinal Chemistry, 2025)
